Shown are actives, neighbours in structure and some others; about 1.3% of the full set was active somewhere.
EWS-Fli inh: EWS/Fli-driven NR0B1 reporter inhibitors, primary screen, A673 cells, NR0B1 luciferase, luminescence, MLPCN library; viability-normalised; inhibition, % at 12.6 µM; actives 0.67% (n = 350,000);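 active = mean inhibition of at least 50% after viability correction, with every replicate also passing that limit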;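 also: firefly luciferase signal divided by Alamar Blue viability fluorescence both relative to DMSO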
PglD inh: C. jejuni PglD acetyltransferase inhibitors, primary screen, biochemical, DTNB colorimetric, single point; inhibition, % at 12.5 µM; UDP-N-acetylbacillosamine N-acetyltransferase PglD (Campylobacter jejuni); purified PglD enzyme, DTNB colorimetric CoA detection; AID 602405, 2012; actives 0.098% (n = 360,000); in the data active = inhibition above about 16%, passing the limit was not always enough
UUG fidelity: alters start codon recognition fidelity in yeast. S. cerevisiae UUG-firefly luciferase reporter, luminescence/redox ratio. 350,000 tested, 0.13% active. activity score, % at 18.7 µM. AID 602363;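 active means replicate mean at a twofold rise or more, about +100% in these data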;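 further: firefly luciferase made from a UUG start codon reports start codon fidelity; reporter light over untreated wells divided by growth signal over untreated wells; some hits fall short of that in this replicate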
F508del corr: F508del CFTR correction, initial screen, CFBE line, single point. activity (quench increase), % at 7.58 µM. CFBE cells, YFP halide quenching; stimulated with forskolin plus potentiator P3; % fluorescence drop versus neutral controls. actives 0.36% (n = 350,000). AID 720511, 2013;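 active = mean added fluorescence quench of at least 8% versus neutral control, with both replicates also reaching 8%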;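 also: cells transiently co-express mutant CFTR-F508del with the halide-sensitive YFP; corrector assay measuring rescue of mutant channel to the surface after 24 h compound exposure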
LGR2 inh: inhibitors of bursicon-induced LGR2 CRE-luciferase signal, primary screen, cell-based, HEK293, CRE-luciferase reporter, bursicon stimulation; actives 0.35% (n = 380,000); inhibition, % at 9.99 µM; bursicon-stimulated, 4 h;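 active = drop in luminescence signal, shown as inhibition above about 50% in the replicate tests, limit read from the data, passing the limit was not always enough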;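 also: agonist challenge used bursicon conditioned medium at about half maximal strength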
miR122 inh: miR-122 Renilla sensor signal increase in Huh7, primary screen, miR-122 inhibitor project, cell-based, single point, plate reader. Huh7 miR-122 Renilla luciferase sensor, 48 h; neutral wells = 0, positive control = 100. activation (reporter increase), % at 12.5 µM. actives 0.3% (n = 340,000). AID 602342, 2012;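 active = mean replicate activation score at least 90 and every replicate individually at or above 90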;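 also: higher luciferase means less miR-122 activity so hits act as miR-122 inhibitors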
The depositor's hits bear a star; · = not tested or not shown; [ ] = another dose, or the depositor's remark.

The line under a structure holds: miR122 inh, UUG fidelity, F508del corr, LGR2 inh, EWS-Fli inh, PglD inh
- COc1cc(C(=O)NCC(=O)N2CCN(S(=O)(=O)c3cc(C)ccc3C)CC2)cc(OC)c1OC
 : 16.8, -0.1, 3.7, 15.9, 54.3*, 3.3
- CO[C@H]1CN(C)C(=O)c2cc(NC(C)=O)ccc2OC[C@H](C)N(CC2CCCCC2)C[C@H]1C
 : -4.0[16.7 µM], ·, 3.0, 4.7, -6.4, 2.5
- CC[n+]1ccccc1/C=C/c1ccc(N(C)C)cc1
 : -39.4, 0.7, 2.5, 31.3, 23.6, -1.0
- CC[n+]1ccc(/C=C/c2ccc(N(C)C)cc2)c2ccccc21
 : ·, ·, -6.9, 16.2, 58.4*, ·
- O=C(CNC(=O)c1ccccc1)N=Nc1c(O)[nH]c2ccc(Br)cc12
 : -2.8, -11.0, -0.9, -1.4, 14.4, 0.8
- O=Nc1c(-c2c(O)[nH]c3cc(Br)ccc23)[nH]c2ccccc12
 : -27.7, -6.3, -2.3, 95.0*, -45.9, 3.6
- COc1cc(Cn2c3ccc(NC(=O)CCc4ccccc4)cc3c(=O)n2C)ccc1F
 : 15.1, -26.0, 1.6, 0.9, 53.6*, -1.0
- Cc1cc(C(=O)NCCCN(C)C)c2ccccc2n1
 : ·, ·, 3.2, -16.9, -16.9, ·
- C=C1SC(Nc2c(C)cccc2C)=NC12CCCCC2
 : -7.1, -6.6, 2.8, -0.4, -33.1, -0.2
- C=C1SC(Nc2c(C)cc(C)cc2C)=NC12CCCCC2
 : 2.8, -7.9, 10.9*, 16.1, 7.2, -2.4
- Cc1ccc(NC(=O)COC(=O)c2cccnc2Cl)cc1S(=O)(=O)N1CCCCC1
 : -4.9, -1.1, -3.9, 14.2, 6.6, 5.6
- Cc1ccc(Nc2nc(-c3ccccc3)cs2)nc1
 : 6.1, -43.0, 1.9, 60.0*, 15.8, -3.1
- COc1ccccc1OCC(=O)NCC(c1cccs1)N1CCOCC1 (configuration not stated)
 : ·, -6.1, 0.1, -1.7, ·, 0.1
- N#C/C(=C\c1ccc([N+](=O)[O-])o1)c1nc2ccccc2[nH]1
 : ·, ·, ·, 12.1, 59.4*, ·
- Cc1ccc2nc(/C(C#N)=C\c3ccc([N+](=O)[O-])o3)[nH]c2c1
 : -2.4, -18.9, ·, ·, ·, -3.5
- CCOc1ccc(S(=O)(=O)Nc2cc(SCC(=O)O)c(O)c3ccccc23)cc1
 : ·, -25.3, -3.8, 18.5, 5.1, 7.1
- O=S(=O)(Nc1cc(Sc2cccc3cccnc23)c(O)c2ccccc12)c1ccccc1
 : ·, ·, 25.9*, ·, 6.2, ·
- CC(C[N+](C)(C)C)OC(=O)C1(c2ccccc2)CCCC1 (configuration not stated)
 : ·, ·, 1.7, 1.3, 5.2, ·
- Cc1cccc(C(=O)Nc2ccc(C(=O)/C=C/c3cccnc3)cc2)c1
 : -3.1, -1.1, ·, -25.9, ·, 1.6
- CC(=O)Nc1cccc(C(=O)/C=C/c2ccc(F)cc2)c1
 : -4.6, -8.7, 1.5, 7.4, 36.9, 6.6

Record cards, from the list above. Screens in order: miR122 inh, UUG fidelity, F508del corr, LGR2 inh, EWS-Fli inh, PglD inh
`CC[n+]1ccc(/C=C/c2ccc(N(C)C)cc2)c2ccccc21` in the list: ·, ·, -6.9, 16.2, 58.4*, ·
`CO[C@H]1CN(C)C(=O)c2cc(NC(C)=O)ccc2OC[C@H](C)N(CC2CCCCC2)C[C@H]1C` in the list: -4.0[16.7 µM], ·, 3.0, 4.7, -6.4, 2.5

Other compounds:
The line under a structure holds: miR122 inh, UUG fidelity, F508del corr, LGR2 inh, EWS-Fli inh, PglD inh
- CC(=O)Nc1cccc(C(=O)/C=C/c2ccc(/C=C/C(=O)c3cccc(NC(C)=O)c3)cc2)c1
 : ·, ·, -10.1, -3.6, 54.7*, ·
- Cc1cccc(C(=O)Nc2ccc(C(=O)/C=C/c3ccncc3)cc2)c1
 : -21.4, -23.0, -5.8, -4.1, 70.7*, -4.5
- CC(=O)Nc1cccc(C(=O)/C=C/c2ccc(Br)cc2)c1
 : ·, ·, ·, 60.2*, 17.9, ·
- CC(=O)Nc1cccc(C(=O)/C=C/c2ccc(N(C)C)cc2)c1
 : ·, ·, -1.8, -39.3, -55.5, ·
- COc1ccccc1CCNC(=O)CSc1nc(-c2ccco2)cc(C(F)(F)F)n1
 : 1.2, -4.6, -2.0, 2.2, -1.4, ·
- Cc1ccc(NC(=O)CCC(=O)c2cccs2)nc1
 : 12.0, -6.2, -0.6, -51.3, -29.4, -3.2
- Cc1ccnc(NC(=O)CCC(=O)c2cccs2)c1
 : ·, -55.5, -1.2, 88.8*, 77.6*, -5.0
- O=C(C1CCCC1)N1CC(=O)N2[C@H](CO)[C@H](c3ccc(C#Cc4cccc(F)c4)cc3)[C@H]2C1
 : ·, ·, 3.9, -7.8, 0.5, ·

2 of the compounds above, comma-delimited:
SMILES,miR122 inh,UUG fidelity,F508del corr,LGR2 inh,EWS-Fli inh,PglD inh
CC(=O)Nc1cccc(C(=O)/C=C/c2ccc(Br)cc2)c1,·,·,·,60.2*,17.9,·
CC(=O)Nc1cccc(C(=O)/C=C/c2ccc(N(C)C)cc2)c1,·,·,-1.8,-39.3,-55.5,·
